# Permeability data for macrocyclic peptides

Source: CycPeptMPDB (Li et al. 2023), which took these values from Hickey et al. 2016, doi:10.1021/acs.jmedchem.6b00222.

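The data file gives no further conditions (lipid, pH, time, direction or concentration), and values from different papers need not be comparable. Other peptides of the study may be missing here. Peptides that the database sets to -10, its floor, are left out.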

PAMPA measures passive passage through an artificial lipid membrane.
Permeability is given as log10 of P in cm/s; higher (less negative) is more permeable.

| PAMPA (log10 cm/s) | compound |
|---|---|
| -8.80 | CC(C)C[C@H]1NC(=O)[C@H]([C@@H](C)O)NC(=O)[C@@H]2CCCN2[C@H](C(=O)NC(C)(C)C)[C@H](C)NC(=O)[C@H](Cc2ccccc2)NC(=O)[C@H](Cc2ccc(O)cc2)NC1=O |
| -6.10 | CC(C)C[C@@H]1NC(=O)[C@H](CC(C)C)NC(=O)[C@@H]2CCCN2[C@H](C(=O)NC(C)(C)C)[C@H](CSc2ccccc2)NC(=O)[C@H](Cc2ccccc2)N(C)C(=O)CNC1=O |
| -5.80 | CC(C)C[C@@H]1NC(=O)[C@H](CC(C)C)NC(=O)[C@@H]2CCCN2[C@H](C(=O)NC(C)(C)C)[C@H](CSc2ccccc2)NC(=O)[C@H](Cc2ccccc2)NC(=O)CNC1=O |
| -6.10 | CC(C)C[C@@H]1C(=O)N[C@H](Cc2ccc(O)cc2)C(=O)N[C@@H](Cc2ccccc2)C(=O)N[C@@H](C)[C@@H](C(=O)NC(C)(C)C)N2CCC[C@H]2C(=O)N[C@@H]([C@@H](C)O)C(=O)N1C |
| -5.40 | CC(C)C[C@@H]1C(=O)N[C@H](Cc2ccc(O)cc2)C(=O)N(C)[C@@H](Cc2ccccc2)C(=O)N[C@@H](C)[C@@H](C(=O)NC(C)(C)C)N2CCC[C@H]2C(=O)N[C@@H]([C@@H](C)O)C(=O)N1C |
| -9.10 | CC(C)C[C@@H]1NC(=O)[C@H](CO)NC(=O)[C@@H]2CCCN2[C@H](C(=O)NC(C)(C)C)[C@H](C)NC(=O)[C@H](Cc2ccccc2)NC(=O)[C@H](Cc2ccc(O)cc2)NC1=O |
| -8.00 | CC(C)C[C@H]1C(=O)N[C@@H](Cc2ccc(O)cc2)C(=O)N[C@@H](Cc2ccccc2)C(=O)N[C@@H](C)[C@@H](C(=O)NC(C)(C)C)N2CCC[C@H]2C(=O)N[C@@H]([C@@H](C)O)C(=O)N1C |
| -5.60 | CC(C)C[C@H]1NC(=O)[C@H](CO)NC(=O)[C@@H]2CCCN2[C@H](C(=O)NC(C)(C)C)[C@H](C)NC(=O)[C@H](Cc2ccccc2)NC(=O)[C@H](Cc2ccccc2)NC1=O |
| -5.90 | CC(C)C[C@@H]1NC(=O)[C@@H]2CCCN2[C@H](C(=O)NC(C)(C)C)[C@H](CSc2ccccc2)NC(=O)[C@H](Cc2ccccc2)N(C)C(=O)CN(C)C(=O)[C@H](CC(C)C)NC1=O |
| -5.30 | CC(C)C[C@H]1NC(=O)[C@H](COC(C)(C)C)NC(=O)[C@@H]2CCCN2[C@H](C(=O)NC(C)(C)C)[C@@H]2CN2C(=O)[C@H](Cc2ccccc2)NC(=O)[C@H](Cc2ccccc2)NC1=O |
| -5.50 | CC(C)C[C@@H]1NC(=O)[C@H](CC(C)C)NC(=O)[C@@H]2CCCN2[C@H](C(=O)NC(C)(C)C)[C@H](C)NC(=O)[C@H](Cc2ccccc2)NC(=O)CNC1=O |
| -7.80 | CC(C)C[C@@H]1NC(=O)[C@H]([C@@H](C)O)NC(=O)[C@@H]2CCCN2[C@H](C(=O)NC(C)(C)C)[C@H](C)NC(=O)[C@H](Cc2ccccc2)NC(=O)[C@H](Cc2ccc(O)cc2)NC1=O |
| -5.60 | CC(C)C[C@@H]1NC(=O)[C@@H]2CCCN2[C@H](C(=O)NC(C)(C)C)[C@H](CSc2ccccc2)NC(=O)[C@H](Cc2ccccc2)NC(=O)CN(C)C(=O)[C@H](CC(C)C)NC1=O |
| -7.20 | CC(C)C[C@H]1NC(=O)[C@H](CO)NC(=O)[C@@H]2CCCN2C(=O)[C@H](C)NC(=O)[C@H](Cc2ccccc2)NC(=O)[C@H](Cc2ccccc2)NC1=O |
| -8.40 | CC(C)C[C@@H]1C(=O)N[C@@H](Cc2ccc(O)cc2)C(=O)N[C@@H](Cc2ccccc2)C(=O)N[C@@H](C)[C@@H](C(=O)NC(C)(C)C)N2CCC[C@H]2C(=O)N[C@@H]([C@@H](C)O)C(=O)N1C |
| -5.60 | CC(C)C[C@H]1NC(=O)[C@H](CO)NC(=O)[C@@H]2CCCN2[C@H](C(=O)NC(C)(C)C)[C@H](CSc2ccccc2)NC(=O)[C@H](Cc2ccccc2)NC(=O)[C@H](Cc2ccccc2)NC1=O |

Repeated from above, the 2 entries with the highest PAMPA:

{"smiles": "CC(C)C[C@H]1NC(=O)[C@H](COC(C)(C)C)NC(=O)[C@@H]2CCCN2[C@H](C(=O)NC(C)(C)C)[C@@H]2CN2C(=O)[C@H](Cc2ccccc2)NC(=O)[C@H](Cc2ccccc2)NC1=O", "PAMPA (log10 cm/s)": "-5.30"}
{"smiles": "CC(C)C[C@@H]1C(=O)N[C@H](Cc2ccc(O)cc2)C(=O)N(C)[C@@H](Cc2ccccc2)C(=O)N[C@@H](C)[C@@H](C(=O)NC(C)(C)C)N2CCC[C@H]2C(=O)N[C@@H]([C@@H](C)O)C(=O)N1C", "PAMPA (log10 cm/s)": "-5.40"}